PubChem BioAssay AID624381 (The Scripps Research Institute Molecular Screening Center, 2012)
Only a part is listed here, and it is no random draw. The source made the active and inactive calls.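 The calls were made as follows: active = mean activation across triplicates above the hit threshold derived in the original primary screen (cut at about 15% in these data); inactive = the rest.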

Chains of the proteins cited; added tags and fusions are not shown.
UniProt P35363, whole entry, looked up: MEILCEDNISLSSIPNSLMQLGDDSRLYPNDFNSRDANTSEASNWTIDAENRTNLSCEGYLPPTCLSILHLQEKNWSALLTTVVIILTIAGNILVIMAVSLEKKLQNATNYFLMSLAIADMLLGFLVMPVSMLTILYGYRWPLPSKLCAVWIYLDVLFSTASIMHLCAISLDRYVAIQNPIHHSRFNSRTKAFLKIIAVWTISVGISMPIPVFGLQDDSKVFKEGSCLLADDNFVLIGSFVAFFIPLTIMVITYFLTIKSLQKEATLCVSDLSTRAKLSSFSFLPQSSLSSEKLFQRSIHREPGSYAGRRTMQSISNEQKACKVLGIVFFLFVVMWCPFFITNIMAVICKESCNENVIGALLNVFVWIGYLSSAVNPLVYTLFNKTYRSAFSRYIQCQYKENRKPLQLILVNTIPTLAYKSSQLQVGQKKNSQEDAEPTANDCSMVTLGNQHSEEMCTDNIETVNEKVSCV

What follows are compounds tested against 5-hydroxytryptamine receptor 2A (Mus musculus) (UniProt P35363) (assay: agonist activity at mouse 5-HT2A receptor – cell-based, luminescence, CHO-K1 PathHunter, triplicate, confirmation (AID 624381)). Details: CHO-K1 PathHunter beta-arrestin recruitment, at 7.6 µM, active compounds read high, DMSO 0%, 30 µM serotonin 100%.

| SMILES | activation |
| --- | --- |
| COc1ccc(N)c([N+](=O)[O-])c1[N+](=O)[O-] | inactive: -6.67% |
